Measured values as given in BindingDB's records for doi:10.1021/acs.biochem.6b00446 (Avanti Polar Lipids, 2016).

Target: T1, Fatty acid-binding protein, liver (Mus musculus, UniProt P12710)
T1 sequence (P12710 whole entry): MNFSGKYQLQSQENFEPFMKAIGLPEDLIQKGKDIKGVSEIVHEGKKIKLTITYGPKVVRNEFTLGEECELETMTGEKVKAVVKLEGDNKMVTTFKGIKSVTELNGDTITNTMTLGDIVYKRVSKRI
Assay: FABP1 Fluorescent Ligand Displacement Assay

CCCCC/C=C\C/C=C\C/C=C\C/C=C\CCCC(=O)NCCO [Arachidonoyl ethanolamide]
Ki: 111 nM
